Protein sequences, listed by entry. Tags and fused reporters are not part of them. Residues count along the entry.
UniProt P48736, 144-1102 limits assumed: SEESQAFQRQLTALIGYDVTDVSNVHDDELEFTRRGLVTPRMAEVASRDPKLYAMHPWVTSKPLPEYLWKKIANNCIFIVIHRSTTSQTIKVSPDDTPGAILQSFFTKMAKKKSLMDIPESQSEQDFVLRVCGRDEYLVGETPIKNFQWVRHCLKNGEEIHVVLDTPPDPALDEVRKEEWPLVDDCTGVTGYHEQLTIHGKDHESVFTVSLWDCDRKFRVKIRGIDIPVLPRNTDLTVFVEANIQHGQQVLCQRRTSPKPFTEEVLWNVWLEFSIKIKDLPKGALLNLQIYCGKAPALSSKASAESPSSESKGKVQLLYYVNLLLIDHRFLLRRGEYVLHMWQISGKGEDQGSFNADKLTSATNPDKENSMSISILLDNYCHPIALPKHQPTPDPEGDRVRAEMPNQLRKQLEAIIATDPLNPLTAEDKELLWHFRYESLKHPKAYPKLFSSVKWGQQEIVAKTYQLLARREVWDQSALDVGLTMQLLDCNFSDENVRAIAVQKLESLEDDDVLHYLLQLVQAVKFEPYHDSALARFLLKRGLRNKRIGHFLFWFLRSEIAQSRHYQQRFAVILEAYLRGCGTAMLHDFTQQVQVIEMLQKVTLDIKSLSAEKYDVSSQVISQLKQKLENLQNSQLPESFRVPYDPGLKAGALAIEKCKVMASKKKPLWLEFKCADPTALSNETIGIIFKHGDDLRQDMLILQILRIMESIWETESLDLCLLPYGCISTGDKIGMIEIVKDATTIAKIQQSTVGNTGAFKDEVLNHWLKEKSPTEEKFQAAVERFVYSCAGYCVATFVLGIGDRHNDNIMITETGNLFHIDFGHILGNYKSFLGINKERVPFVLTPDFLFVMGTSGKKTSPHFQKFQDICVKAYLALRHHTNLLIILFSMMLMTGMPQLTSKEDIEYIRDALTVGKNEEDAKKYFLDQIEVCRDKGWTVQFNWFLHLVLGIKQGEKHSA

According to patent publication US8106039B2, “Metal complex phosphatidyl-inositol-3-kinase inhibitors” (The Trustees Of The University Of Pennsylvania, priority 2008, dated 2012):

Biological target: T1, human PI3Kγ catalytic domain (Homo sapiens, UniProt P48736)
T1 construct: made in house; host or cells: baculovirus expression (virus obtained from the MRC, United Kingdom)
Test: PI3K Kinase-Glo assay
Format: biochemical
Experimental: PI3K Kinase-Glo Assay. Recombinantly expressed human PI3Kγ catalytic domain was preincubated with various concentration of inhibitors with a final DMSO concentration of 2% in reaction buffer (20 mM Tris pH 7.5, 100 mM NaCl, 10 mM MgCl2) for 1 hour at room temperature before this mixture was added to a solution of 0.1 mg/mL D-myo-Phosphatidylinositol 4,5-biphosphate (PtdIns (4,5)P2, Echelon Biosciences) and 10 μM ATP. 14 pmoles PI3K was used in compounds DW12, DW12Me, EAd125 comparison and 1.4 pmoles PI3K was used for compounds E5, E5E2, E5E1 measurements. The kinase reaction was carried out in a 50 μL final volume in a 96-well microtiter plate at 37° C. for 3 hours before 50 μL Kinase-Glo® (Promega) developing solution was added into the mixture to generate a luminescence signal. The signal was recorded using the PerkinElmer Wallac 1420 luminometer using a luminescence filter. Data were processed and IC50 values were derived from using 2% DMSO and with no kinase as controls and a sigmoidal dose response curve fitting by GraphPad Prism.

O=c1cc(N2CCOCC2)oc2c(-c3ccccc3)cccc12 [LY294002, 2-(4-morpholinyl)-8-phenyl-4H-1-benzopyran-4-one, reference compound]
specificity for PI3Kγ relative to the other kinases profiled (4 μM, compared with E5E2, FIGS. 3B and 9): less specific
PI3K inhibition / inhibitory potency (in words) (comparison among the inhibitors, FIG. 2C, FIG. 9): less potent
